From PMC12200682 (PLOS One, 2025)
Where two headings read alike, the source gives them in different places.

Columns and labels:
[1] = tested on: SNU-16; test: Cell viability assay, SNU-16; assay type: cell-based, human; details: read-out: IC50 cytotoxicity
Experimental: (§1) Cells were seeded into 96-well plates at 1500 cells/well for SK-BR-3, JIMT-1, and NCI-N87, 800 cells/well for HCC1954, 600 cells/well for AGS and MKN-45, 2500 cells/well for MDA-MB-468 and Capan-1, and 1000 cells/well for SNU-16. After overnight incubation, a serially diluted solution of compounds or ADCs was added. Cell viability was evaluated after 6 days using CellTiter-Glo reagent (Promega) according to the manufacturer’s instructions. Luminescence was measured by PHERAstar (BMG LABTECH).

[2] = tested on: MDA-MB-468 cells co-cultured with SK-BR-3; test: Bystander killing effect in SK-BR-3 / MDA-MB-468 co-culture; assay type: cell-based, human; details: co-culture with SK-BR-3; 3 days
[3] = cited from earlier work
[4] = GLP toxicology study in cynomolgus monkeys; assay type: in vivo; details: 5 times
Experimental: (§2) GLP toxicology and toxicokinetics studies were outsourced to Shanghai InnoStar Bio-tech Co., Ltd. Studies were approved by InnoStar’s Institutional Animal Care and Use Committee and carried out in compliance with ARRIVE guidelines. Cynomolgus monkeys were housed in stainless steel cages at the study institution. The temperature and relative humidity of the room were recorded twice a day with ranged from 18 to 26°C and 40–70%, respectively. Ventilation was constantly operated with ≥ 8 times of air changes per hour. […] Monkey maintenance feed was purchased from qualified supplier with microorganisms, heavy metals and pesticide residues tested. During the study, all animals had ad libitum access to feed and clean deionized water except during specific fasting. […] All animals were acclimated to temperature and relative humidity-controlled environment for few days before randomization. Detailed clinical observation was performed on all cynomolgus monkeys once a day during the acclimation period. All of the animal care staff were trained to maximal reduce the pain of animals. Special training such as animal handling, proper injection for treatment/anesthesia, and painless death were taught to the staff.
(§3) Clinical signs, body weight, food consumption, and clinical pathology were monitored twice a day. […] Humane endpoint criteria were observed twice a day during study to examine health and behavior. Animals were sacrificed in less than a day once reached endpoint criteria. There were no unexpected animal deaths during the studies with 16-weeks duration. All of the animals were euthanized by intravenous injection of combination of zoletil and xylazine at the end of study for targeted organ and tissue examinations to evaluate toxicity or when the following humane endpoints were reached: severe injury, severe respiratory depression, severe weight loss, persistent anorexia, significant pain or stress, progressive pain leading to weakness, and persistent or continuous twitching. Final disposal of each animal was recorded on the study records.

[5] = tested on: Capan-1; test: Cell viability assay, Capan-1; assay type: cell-based, human; details: Capan-1, HER2 Low; 6 days, CellTiter-Glo; read-out: IC50 cytotoxicity
Experimental: as §1

[6] = Toxicokinetics in cynomolgus monkeys; assay type: in vivo
Experimental: as §2, §3

[7] = PK of ADCs in mice, intraperitoneal vs. intravenous; assay type: in vivo
[8] = Body weight in xenograft models; assay type: in vivo, mice; details: NCI-N87, JIMT-1 and Capan-1 xenograft models
From the text: (§4) Female NUNU nude mice, Beige SCID mice and Balb/c nude mice (15–18 g body weight, n = 385) were purchased from Beijing Vital River Laboratory Animal Technology Co., Ltd. In brief, NCI-N87 (5 × 10^6 cells/inoculation), JIMT-1 (4.5 × 10^6 cells/inoculation) and Capan-1 (3 × 10^6 cells/inoculation) were implanted subcutaneously into the hind flank region and allowed to grow to the appropriate size (150–250 mm^3 in average). Six to eight mice per treatment group were randomized according to the size of tumors. […] The ADCs were administered intraperitoneally at various dosages single time or every week for two weeks as described in the figure legend. Tumor volume and body weight were measured twice a week during the course of the study. […] Tumor volume of individual tumors at each time point was measured as V = 1/2 x Length x Width^2. Mice were examined daily for health condition and humane endpoint criteria. Animals were sacrificed in less than a day once criteria was reached. There were no unexpected animal deaths during the in vivo studies with 40–50-day duration. All of the mice were euthanized using inhaled carbon dioxide at the end of study or when the following humane endpoints were reached: tumor volume exceeding 2000 mm^3, body weight decreases by more than 20% of the initial weight, tumor ulceration, any sign of severe pain distress or infection.

[9] = tested on: NCI-N87 xenograft; test: NCI-N87 mouse xenograft; assay type: in vivo, mice
From the text: as §4

[10] = tested on: JIMT-1 xenograft; test: JIMT-1 mouse xenograft; assay type: in vivo, mice; details: 10 mg/kg i.p. single dose (Fig 2B)
[11] = 6.4 mg/kg, cited from earlier work
[12] = 6.4 mg/kg; cited from earlier work
[13] = cynomolgus monkeys, once every 3 weeks for 3 doses; cited from earlier work
[14] = 5.4 mg/kg; cited from earlier work
[15] = SNU-16, HER2 Low, 6 days, CellTiter-Glo

## CC[C@@]1(O)C(=O)OCc2c1cc1n(c2=O)Cc2c-1nc1cc(F)c(C)c3c1c2[C@@H](NC(=O)[C@H](O)C1CC1)CC3 [SHR169265]
[1]; Homo sapiens, SNU-16, 144 h
  IC50: 0.57 ± 0.19 nM

## SHR-A1811
[2]
  IC50: 0.23 ± 0.05 nM
[3]; HER2-expressing/mutant non-breast solid tumor patients
  ORR: 45.9%
[3]; HER2-positive breast cancer patients, 1 to 8.0 mg/kg i.v. every 3 weeks
  ORR: 76.3%
[3]; HER2 low-expressing breast cancer patients, 1 to 8.0 mg/kg i.v. every 3 weeks
  ORR: 60.4%
[3]; patients, 6.4 mg/kg cohort, after multiple dosing
  AUCinf of free payload in plasma: 26.7 µg·days/mL
[4]; 3 mg/kg i.v. every 3 weeks
  Body weight and food intake: Normal
  Cardiac function: Normal
  Clinical chemistry at day2: Normal
  Clinical signs: Normal
  Hematology: Normal
  Mortality: No report
  Target organs and tissue: Normal
[4]; 10 mg/kg i.v. every 3 weeks
  Body weight and food intake: Normal
  Cardiac function: Normal
  Clinical chemistry at day2: Normal
  Clinical signs: Normal
  Hematology: Normal
  Mortality: No report
  Target organs and tissue: Normal
[4]; 40 mg/kg i.v. every 3 weeks
  Body weight and food intake: Normal
  Cardiac function: Normal
  Clinical chemistry at day2: Normal
  Clinical signs: Normal
  Mortality: No report
[1]; [15]
  IC50: 133 ± 22.3 nM
[5]
  IC50: 11.3 ± 2.7 nM
[6]; analyte after SHR-A1811 40 mg/kg i.v. every 3 weeks, Multiple
  AUCt: 3988273 ng·days/mL
[6]; analyte after SHR-A1811 40 mg/kg i.v. every 3 weeks, multiple doses
  AUCt: 3.988e+06 ng·days/mL
[6]; analyte after SHR-A1811 40 mg/kg i.v., Single
  AUCt: 3111089 ng·days/mL
[7]; IP @ 3mpk
  AUC 0-672: 2037.9 ± 858.0 µg·h/mL
[7]; IV @ 3mpk
  AUC 0-672: 2054.6 ± 207.8 µg·h/mL
[8]
  effect on mouse body weight: without effect
[9]; 3 mg/kg i.p. single dose
  TGI: 124%
[10]
  TGI: 80.7%

## T-DXd
[11]; breast cancer patients
  ILD incidence: 21%
[11]; patients
  AUC inf of free payload: 34.2 µg·days/mL
[12]
  discontinuation accounted for by ILD/pneumonitis: 6%
  dose interruption: up to 62%
[13]
  HNSTD: 30 mg/kg
[14]
  dose reduction rate: 21%
  incidence of drug-related adverse events of grade 3 or 4: 45.1%
  treatment discontinuation accounted for by ILD/pneumonitis: 8%

## Trastuzumab: HER2 antibody produced with the published amino acid sequence [reference compound]
[1]; [15]
  IC50: > 500 nM
[5]
  IC50: > 500 nM
[9]; 6 mg/kg i.p. single dose
  TGI: 51%
